Data from US7141546B1, “CRFR2 selective ligands” (priority 2001, dated 2006).
Residue numbers refer to the chain shown, from its start.

Chains of the proteins cited; added tags and fusions are not shown. Residues count along the entry.
UniProt P35353, 24-415: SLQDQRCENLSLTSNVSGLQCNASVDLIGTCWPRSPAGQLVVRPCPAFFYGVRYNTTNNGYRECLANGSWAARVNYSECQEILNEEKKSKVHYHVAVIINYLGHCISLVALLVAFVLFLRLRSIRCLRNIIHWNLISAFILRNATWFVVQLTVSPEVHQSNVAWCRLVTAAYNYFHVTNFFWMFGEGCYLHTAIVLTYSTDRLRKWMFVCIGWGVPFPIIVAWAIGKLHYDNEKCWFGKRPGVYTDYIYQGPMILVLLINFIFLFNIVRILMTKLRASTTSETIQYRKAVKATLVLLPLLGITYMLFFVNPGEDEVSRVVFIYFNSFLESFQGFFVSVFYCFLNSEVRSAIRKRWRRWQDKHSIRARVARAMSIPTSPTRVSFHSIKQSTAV

Assays:
CRFR1 [1] = biological target: T1, CRFR1 (Homo sapiens, UniProt P34998); experiment: cAMP accumulation in CHO cells stably transfected with CRFR1 and treated with CRF; format: cell-based
T1 construct: expressed in transfected cells
T1 sequence (P34998 24-415): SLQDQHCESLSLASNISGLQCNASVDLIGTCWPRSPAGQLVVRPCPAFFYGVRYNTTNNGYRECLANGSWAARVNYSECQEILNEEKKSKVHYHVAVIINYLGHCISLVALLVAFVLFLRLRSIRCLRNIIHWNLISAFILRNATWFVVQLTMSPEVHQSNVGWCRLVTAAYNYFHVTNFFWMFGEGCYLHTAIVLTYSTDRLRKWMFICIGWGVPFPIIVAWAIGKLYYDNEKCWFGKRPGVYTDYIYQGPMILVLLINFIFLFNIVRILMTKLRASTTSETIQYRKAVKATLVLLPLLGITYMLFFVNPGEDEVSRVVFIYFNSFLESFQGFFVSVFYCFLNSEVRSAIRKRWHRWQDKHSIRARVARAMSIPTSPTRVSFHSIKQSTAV
Text: In addition to inhibiting CRF receptor binding, a candidate's CRF receptor antagonist activity may be established by the ability of the compound to antagonize an activity associated with CRF. For example, CRF is known to stimulate various biochemical processes, including adenylate cyclase activity. Therefore, compounds may be evaluated as CRF antagonists by their ability to antagonize CRF-stimulated adenylate cyclase activity by, for example, measuring cAMP levels. The inhibition of CRF-stimulated adenylate cyclase activity, determined by the assay described by G. Battaglia et al., Synapse 1:572 (1987), provides an assay for determining a compound's ability to antagonize CRF activity. Accordingly, CRF receptor antagonist activity may be determined by assay techniques which generally include an initial binding assay followed by such a cAMP screening protocol.
(§1) Binding assays with cells expressing human CRFR1 are carried out as described in the Chen et al. P.N.A.S., supra. The affinities of test peptides for CRFR1 and CRFR2b stably expressed in CHO cells were determined by competitive displacement of ^125I-(Nle^21, Tyr^32) ovine CRF (for CRFR1) or of [^125I-Tyr^o-]Ucn (for CRFR2b) as described.

human CRFR2b = biological target: T2, human CRFR2b (Homo sapiens, UniProt Q13324); experiment: Competitive displacement binding assay, stably transfected CHO cells expressing human CRFR2b; settings: in words; binding to CRFR2 compared with CRFR1
T2 construct: expressed in transfected cells
T2 sequence (Q13324 1-438 isoform Q13324-2): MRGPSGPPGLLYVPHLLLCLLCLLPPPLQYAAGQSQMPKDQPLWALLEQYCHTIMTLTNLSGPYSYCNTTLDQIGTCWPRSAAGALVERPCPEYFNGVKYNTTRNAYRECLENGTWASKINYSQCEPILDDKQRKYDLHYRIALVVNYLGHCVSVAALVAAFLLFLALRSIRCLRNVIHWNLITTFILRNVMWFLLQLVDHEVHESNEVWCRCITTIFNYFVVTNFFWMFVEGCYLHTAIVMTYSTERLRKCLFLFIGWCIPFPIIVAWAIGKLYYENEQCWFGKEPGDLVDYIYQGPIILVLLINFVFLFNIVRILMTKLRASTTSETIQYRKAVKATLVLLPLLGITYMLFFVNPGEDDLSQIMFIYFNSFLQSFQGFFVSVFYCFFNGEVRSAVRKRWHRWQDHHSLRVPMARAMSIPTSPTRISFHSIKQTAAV
Procedure: CRF receptors have now been cloned and are disclosed in the aforementioned Chen et al. article, in Perrin, M., et al., P.N.A.S, 92, 2969–2973 (March 1995), and in Lovenberg, T., et al., P.N.A.S., 92, 836–840 (January 1995). Binding affinity is a term used to refer to the strength of interaction between ligand and receptor. […] Ki (inhibitory binding affinity constant) is determined using a “standard” or “tracer” radioactive ligand and thus measures the displacement of the tracer from the receptor or binding protein; it is most properly expressed with reference to such tracer. However, so long as these assays are carefully performed under specific conditions with relatively low concentrations of receptor or the like, the calculated Ki will be substantially the same as its dissociation constant KD. […] It is particularly efficient to test for Ki because only a single tracer need be labelled, e.g. radioiodinated. […] Those reported hereinafter are derived using radioactively labeled [Tyr Glu^1, Nle^17]-Svg as a radioligand.
as §1

CRFR2β = settings: Ruhmann et al. P.N.A.S. 95 (1998); cited from earlier work
CRFR1 [2] = biological target: T3, CRFR1 (Rattus norvegicus, UniProt P35353); settings: Ruhmann et al. P.N.A.S. 95 (1998); cited from earlier work
T3 sequence (P35353 24-415): T1 sequence (P34998 24-415) with H6R, S9N, A13T, I16V, M153V, G163A, I209V, Y229H, H356R

For “(cyclo 31–34)[Ac-D-2Nal^11, His^12, CML^13,39, Nle^17, Glu^31, Lys^34]-sauvagine(11–40) [Example 6]”, the “antagonism of CRF activity with respect to CRFR1 (cAMP accumulation)” value (“antagonism of CRF activity” below) (CRFR1 [1]) was “little or no effect” and the “binding selectivity, CRFR2 versus CRFR1” value (human CRFR2b) was “very good selectivity”.

In the case of “(cyclo 31–34)[Ac-D-3 Pal^11, His^12, CML^13,39, Nle^17, Glu^31, Lys^34]-sauvagine(11–40) [Example 7]”, the “antagonism of CRF activity” value (CRFR1 [1]) is reported as “little or no effect” and the “binding selectivity, CRFR2 versus CRFR1” value (human CRFR2b) is reported as “very good selectivity”.

For “(cyclo 31–34)[Ac-D-Cpa^11, His^12, CML^13,39, Nle^17, Glu^31, Lys^34]-sauvagine(11–40) [Example 5]”, the “antagonism of CRF activity” value (CRFR1 [1]) was “little or no effect” and the “binding selectivity, CRFR2 versus CRFR1” value (human CRFR2b) was “very good selectivity”.

With “(cyclo 31–34)[Ac-D-Leu^11, His^12, CML^13,39, Nle^17, Glu^31 Lys^34]-sauvagine(8–40) [Example 3]” the “antagonism of CRF activity” value (CRFR1 [1]) was “little or no effect” and the “binding selectivity, CRFR2 versus CRFR1” value (human CRFR2b) was “very good selectivity”.

In the case of “(cyclo 31–34)[Ac-D-Phe^11, His^12, CML^13,39, Nle^17, Glu^31, Orn^34]-sauvagine(11–40) [Example 8]”, the “antagonism of CRF activity” value (CRFR1 [1]) is reported as “little or no effect” and the “binding selectivity, CRFR2 versus CRFR1” value (human CRFR2b) is reported as “very good selectivity”.

For “(cyclo 31–34)[Ac-D-Tyr^11, His^12, CML^13,39, Nle^17, Glu^31, Lys^34]-sauvagine(11–40) [Example 4]”, the “antagonism of CRF activity” value (CRFR1 [1]) was “little or no effect” and the “binding selectivity, CRFR2 versus CRFR1” value (human CRFR2b) was “very good selectivity”.

For [D-Phe^11, His^12]-sauvagine (11–40), the “competitive antagonism relative to the previously best reported compound, CRFR2β” value (CRFR2β) is listed as “close to equal antagonism” and the “competitive antagonism relative to the then best antagonist, CRFR1” value (CRFR1 [2]) is listed as “about 30%”.
